Test results as given in US10335367B2, “Use of selected anticholinergic zwitterions” (Bodor Laboratories, Inc., priority 2015, dated 2019).
Several values for one entry are separate records, joined by “and”; a condition that tells them apart may be missing. Equal values may be shown once.

Test system: human eyes
Assay: Mydriatic study of (2R)SGA & Tropicamide in human eyes (topical, pupil diameter)
Format: in vivo
Settings: 1%; for AUC0-168 of % change in pupil size / % Change in pupil size / % dilation (% Change in pupil size) / Pupil Size / Pupil Size -Control: 0.1 ml

Q: What does the source list for `C[N+]1(CC(=O)[O-])CCC(OC(=O)[C@](O)(c2ccccc2)C2CCCC2)C1` (some centres unmarked)?
A: Time to Emax (0.1 ml in each eye): 3 h; Emax, % (maximum mydriatic effect, % change in pupil size) (0.1 ml in each eye, mean of 2 subjects): 125.0%; AUC0-168 of % change in pupil size (Mean, Subjects 1 & 2): 7436.5; % Change in pupil size (Mean, Subjects 1 & 2, 0 hr): 0.0%; % Change in pupil size (Mean, Subjects 1 & 2, 0.25 hr): 25.0%; % Change in pupil size (Mean, Subjects 1 & 2, 0.5 hr): 70.8%; % Change in pupil size (Mean, Subjects 1 & 2, 0.75 hr): 95.8%; % Change in pupil size (Mean, Subjects 1 & 2, 1 hr): 108.3%; % Change in pupil size (Mean, Subjects 1 & 2, 1.5 hr): 108.3%; % Change in pupil size (Mean, Subjects 1 & 2, 2 hr): 112.5%; % Change in pupil size (Mean, Subjects 1 & 2, 3 hr): 125.0%; % Change in pupil size (Mean, Subjects 1 & 2, 4 hr): 120.8%; % Change in pupil size (Mean, Subjects 1 & 2, 5 hr): 114.6%; % Change in pupil size (Mean, Subjects 1 & 2, 6 hr): 114.6%; % Change in pupil size (Mean, Subjects 1 & 2, 7 hr): 106.3%; % Change in pupil size (Mean, Subjects 1 & 2, 8 hr): 106.3%; % Change in pupil size (Mean, Subjects 1 & 2, 12 hr): 100.0%; % Change in pupil size (Mean, Subjects 1 & 2, 24 hr): 83.3%; % Change in pupil size (Mean, Subjects 1 & 2, 36 hr): 66.7%; % Change in pupil size (Mean, Subjects 1 & 2, 48 hr): 56.3%; % Change in pupil size (Mean, Subjects 1 & 2, 72 hr): 45.8%; % Change in pupil size (Mean, Subjects 1 & 2, 96 hr): 29.2%; % Change in pupil size (Mean, Subjects 1 & 2, 120 hr): 20.8%; % Change in pupil size (Mean, Subjects 1 & 2, 144 hr): 14.6%; % Change in pupil size (Mean, Subjects 1 & 2, 168 hr): 8.3%; AUC0-168 of % change in pupil size (Subject 1 Left Eye): 10157.3; % dilation (% Change in pupil size) (Subject 1 Left Eye, 0 hr): 0%; Pupil Size (Subject 1 Left Eye, 0 hr): 3 mm; Pupil Size -Control (Subject 1 Left Eye, 0 hr): 0; % dilation (% Change in pupil size) (Subject 1 Left Eye, 0.25 hr): 17% and 16.7%; Pupil Size (Subject 1 Left Eye, 0.25 hr): 3.5 mm; Pupil Size -Control (Subject 1 Left Eye, 0.25 hr): 0.5; % dilation (% Change in pupil size) (Subject 1 Left Eye, 0.5 hr): 33% and 33.3%; Pupil Size (Subject 1 Left Eye, 0.5 hr): 4 mm; Pupil Size -Control (Subject 1 Left Eye, 0.5 hr): 1; % dilation (% Change in pupil size) (Subject 1 Left Eye, 0.75 hr): 83% and 83.3%; Pupil Size (Subject 1 Left Eye, 0.75 hr): 5.5 mm; Pupil Size -Control (Subject 1 Left Eye, 0.75 hr): 2.5; % dilation (% Change in pupil size) (Subject 1 Left Eye, 1 hr): 108% and 108.3%; Pupil Size (Subject 1 Left Eye, 1 hr): 6.25 mm; Pupil Size -Control (Subject 1 Left Eye, 1 hr): 3.25; % dilation (% Change in pupil size) (Subject 1 Left Eye, 1.5 hr): 108% and 108.3%; Pupil Size (Subject 1 Left Eye, 1.5 hr): 6.25 mm; Pupil Size -Control (Subject 1 Left Eye, 1.5 hr): 3.25; % dilation (% Change in pupil size) (Subject 1 Left Eye, 2 hr): 117% and 116.7%; Pupil Size (Subject 1 Left Eye, 2 hr): 6.5 mm; Pupil Size -Control (Subject 1 Left Eye, 2 hr): 3.5; % dilation (% Change in pupil size) (Subject 1 Left Eye, 3 hr): 133% and 133.3%; Pupil Size (Subject 1 Left Eye, 3 hr): 7 mm; Pupil Size -Control (Subject 1 Left Eye, 3 hr): 4; % dilation (% Change in pupil size) (Subject 1 Left Eye, 4 hr): 125%; Pupil Size (Subject 1 Left Eye, 4 hr): 6.75 mm; Pupil Size -Control (Subject 1 Left Eye, 4 hr): 3.75; % dilation (% Change in pupil size) (Subject 1 Left Eye, 5 hr): 117% and 116.7%; Pupil Size (Subject 1 Left Eye, 5 hr): 6.5 mm; Pupil Size -Control (Subject 1 Left Eye, 5 hr): 3.5; % dilation (% Change in pupil size) (Subject 1 Left Eye, 6 hr): 117% and 116.7%; Pupil Size (Subject 1 Left Eye, 6 hr): 6.5 mm; Pupil Size -Control (Subject 1 Left Eye, 6 hr): 3.5; % dilation (% Change in pupil size) (Subject 1 Left Eye, 7 hr): 100%; Pupil Size (Subject 1 Left Eye, 7 hr): 6 mm; Pupil Size -Control (Subject 1 Left Eye, 7 hr): 3; % dilation (% Change in pupil size) (Subject 1 Left Eye, 8 hr): 100%; Pupil Size (Subject 1 Left Eye, 8 hr): 6 mm; Pupil Size -Control (Subject 1 Left Eye, 8 hr): 3; % dilation (% Change in pupil size) (Subject 1 Left Eye, 12 hr): 100%; Pupil Size (Subject 1 Left Eye, 12 hr): 6 mm; Pupil Size -Control (Subject 1 Left Eye, 12 hr): 3; % dilation (% Change in pupil size) (Subject 1 Left Eye, 24 hr): 100%; Pupil Size (Subject 1 Left Eye, 24 hr): 6 mm; Pupil Size -Control (Subject 1 Left Eye, 24 hr): 3; % dilation (% Change in pupil size) (Subject 1 Left Eye, 36 hr): 100%; Pupil Size (Subject 1 Left Eye, 36 hr): 6 mm; Pupil Size -Control (Subject 1 Left Eye, 36 hr): 3; % dilation (% Change in pupil size) (Subject 1 Left Eye, 48 hr): 83% and 83.3%; Pupil Size (Subject 1 Left Eye, 48 hr): 5.5 mm; Pupil Size -Control (Subject 1 Left Eye, 48 hr): 2.5; % dilation (% Change in pupil size) (Subject 1 Left Eye, 72 hr): 67% and 66.7%; Pupil Size (Subject 1 Left Eye, 72 hr): 5 mm; Pupil Size -Control (Subject 1 Left Eye, 72 hr): 2; % dilation (% Change in pupil size) (Subject 1 Left Eye, 96 hr): 50%; Pupil Size (Subject 1 Left Eye, 96 hr): 4.5 mm; Pupil Size -Control (Subject 1 Left Eye, 96 hr): 1.5; % dilation (% Change in pupil size) (Subject 1 Left Eye, 120 hr): 33% and 33.3%; Pupil Size (Subject 1 Left Eye, 120 hr): 4 mm; Pupil Size -Control (Subject 1 Left Eye, 120 hr): 1; % dilation (% Change in pupil size) (Subject 1 Left Eye, 144 hr): 25%; Pupil Size (Subject 1 Left Eye, 144 hr): 3.75 mm; Pupil Size -Control (Subject 1 Left Eye, 144 hr): 0.75; % dilation (% Change in pupil size) (Subject 1 Left Eye, 168 hr): 17% and 16.7%; Pupil Size (Subject 1 Left Eye, 168 hr): 3.5 mm; Pupil Size -Control (Subject 1 Left Eye, 168 hr): 0.5; AUC0-168 of % change in pupil size (Subject 1 Right eye): 11707.3; % dilation (% Change in pupil size) (Subject 1 Right eye, 0 hr): 0%; Pupil Size (Subject 1 Right eye, 0 hr): 3 mm; Pupil Size -Control (Subject 1 Right eye, 0 hr): 0; % dilation (% Change in pupil size) (Subject 1 Right eye, 0.25 hr): 17% and 16.7%; Pupil Size (Subject 1 Right eye, 0.25 hr): 3.5 mm; Pupil Size -Control (Subject 1 Right eye, 0.25 hr): 0.5; % dilation (% Change in pupil size) (Subject 1 Right eye, 0.5 hr): 33% and 33.3%; Pupil Size (Subject 1 Right eye, 0.5 hr): 4 mm; Pupil Size -Control (Subject 1 Right eye, 0.5 hr): 1; % dilation (% Change in pupil size) (Subject 1 Right eye, 0.75 hr): 83% and 83.3%; Pupil Size (Subject 1 Right eye, 0.75 hr): 5.5 mm; Pupil Size -Control (Subject 1 Right eye, 0.75 hr): 2.5; % dilation (% Change in pupil size) (Subject 1 Right eye, 1 hr): 108% and 108.3%; Pupil Size (Subject 1 Right eye, 1 hr): 6.25 mm; Pupil Size -Control (Subject 1 Right eye, 1 hr): 3.25; % dilation (% Change in pupil size) (Subject 1 Right eye, 1.5 hr): 108% and 108.3%; Pupil Size (Subject 1 Right eye, 1.5 hr): 6.25 mm; Pupil Size -Control (Subject 1 Right eye, 1.5 hr): 3.25; % dilation (% Change in pupil size) (Subject 1 Right eye, 2 hr): 117% and 116.7%; Pupil Size (Subject 1 Right eye, 2 hr): 6.5 mm; Pupil Size -Control (Subject 1 Right eye, 2 hr): 3.5; % dilation (% Change in pupil size) (Subject 1 Right eye, 3 hr): 133% and 133.3%; Pupil Size (Subject 1 Right eye, 3 hr): 7 mm; Pupil Size -Control (Subject 1 Right eye, 3 hr): 4; % dilation (% Change in pupil size) (Subject 1 Right eye, 4 hr): 125%; Pupil Size (Subject 1 Right eye, 4 hr): 6.75 mm; Pupil Size -Control (Subject 1 Right eye, 4 hr): 3.75; % dilation (% Change in pupil size) (Subject 1 Right eye, 5 hr): 117% and 116.7%; Pupil Size (Subject 1 Right eye, 5 hr): 6.5 mm; Pupil Size -Control (Subject 1 Right eye, 5 hr): 3.5; % dilation (% Change in pupil size) (Subject 1 Right eye, 6 hr): 117% and 116.7%; Pupil Size (Subject 1 Right eye, 6 hr): 6.5 mm; Pupil Size -Control (Subject 1 Right eye, 6 hr): 3.5; % dilation (% Change in pupil size) (Subject 1 Right eye, 7 hr): 100%; Pupil Size (Subject 1 Right eye, 7 hr): 6 mm; Pupil Size -Control (Subject 1 Right eye, 7 hr): 3; % dilation (% Change in pupil size) (Subject 1 Right eye, 8 hr): 100%; Pupil Size (Subject 1 Right eye, 8 hr): 6 mm; Pupil Size -Control (Subject 1 Right eye, 8 hr): 3; % dilation (% Change in pupil size) (Subject 1 Right eye, 12 hr): 100%; Pupil Size (Subject 1 Right eye, 12 hr): 6 mm; Pupil Size -Control (Subject 1 Right eye, 12 hr): 3; % dilation (% Change in pupil size) (Subject 1 Right eye, 24 hr): 100%; Pupil Size (Subject 1 Right eye, 24 hr): 6 mm; Pupil Size -Control (Subject 1 Right eye, 24 hr): 3; % dilation (% Change in pupil size) (Subject 1 Right eye, 36 hr): 100%; Pupil Size (Subject 1 Right eye, 36 hr): 6 mm; Pupil Size -Control (Subject 1 Right eye, 36 hr): 3; % dilation (% Change in pupil size) (Subject 1 Right eye, 48 hr): 92% and 91.7%; Pupil Size (Subject 1 Right eye, 48 hr): 5.75 mm; Pupil Size -Control (Subject 1 Right eye, 48 hr): 2.75; % dilation (% Change in pupil size) (Subject 1 Right eye, 72 hr): 83% and 83.3%; Pupil Size (Subject 1 Right eye, 72 hr): 5.5 mm; Pupil Size -Control (Subject 1 Right eye, 72 hr): 2.5; % dilation (% Change in pupil size) (Subject 1 Right eye, 96 hr): 67% and 66.7%; Pupil Size (Subject 1 Right eye, 96 hr): 5 mm
